Results reported in ChEMBL document CHEMBL3885861, “Open TG-GATES”.
Where “and” joins values, the source holds several entries; their conditions need not be identical. Identical values can stand only once.

Assays:
[1] = organism: Rattus norvegicus; assay: Open TG-GATES - Regimen: Daily Repeat; type: toxicity, organism-based, Sprague-Dawley; set-up: regimen Daily Repeat, gender Male, age 6 weeks; details: in vivo, po, route gavage
[2] = organism: Rattus norvegicus; assay: Open TG-GATES - Regimen: Single; type: toxicity, organism-based, Sprague-Dawley; set-up: regimen Single, gender Male, age 6 weeks; details: in vivo, po, route gavage
[3] = 0 mg/kg, 72 h, tissue Plasma, dose level Control, time 3 day
[4] = 0 mg/kg, […], tissue Plasma, dose level Control, time 7 day
[5] = 0 mg/kg, […], tissue Plasma, dose level Control, time 14 day
[6] = 0 mg/kg, […], tissue Plasma, dose level Control, time 28 day
[7] = 0 mg/kg, 3 h, tissue Plasma, dose level Control
[8] = 0 mg/kg, 6 h, tissue Plasma, dose level Control
[9] = 0 mg/kg, 9 h, tissue Plasma, dose level Control
[10] = 0 mg/kg, 24 h, tissue Plasma, dose level Control
[11] = 5 mg/kg, 9 h, tissue Plasma, dose level Middle
[12] = 10 mg/kg, […], tissue Plasma, dose level Low, time 28 day
[13] = 100 mg/kg, […], tissue Plasma, dose level High, time 28 day
[14] = 300 mg/kg, 6 h, tissue Plasma, dose level Middle
[15] = 300 mg/kg, 24 h, tissue Plasma, dose level Middle

## O=P1(N(CCCl)CCCl)NCCCO1 (configuration not stated) [CYCLOPHOSPHAMIDE ANHYDROUS]
[1]; [3]
  A/G: 1.3
[1]; [4]
  A/G: 1.1
[1]; [5]
  A/G: 1.1
[1]; [6]
  A/G: 1
[1]; 2 mg/kg, 72 h, tissue Plasma, dose level Low, time 3 day
  A/G: 1.2
[1]; 2 mg/kg, […], tissue Plasma, dose level Low, time 7 day
  A/G: 1.3
[1]; 2 mg/kg, […], tissue Plasma, dose level Low, time 14 day
  A/G: 1.1
[1]; 2 mg/kg, […], tissue Plasma, dose level Low, time 28 day
  A/G: 1
[1]; 5 mg/kg, 72 h, tissue Plasma, dose level Middle, time 3 day
  A/G: 1.2
[1]; 5 mg/kg, […], tissue Plasma, dose level Middle, time 7 day
  A/G: 1.2
[1]; 5 mg/kg, […], tissue Plasma, dose level Middle, time 14 day
  A/G: 1.1
[1]; 5 mg/kg, […], tissue Plasma, dose level Middle, time 28 day
  A/G: 1.1
[1]; 15 mg/kg, 72 h, tissue Plasma, dose level High, time 3 day
  A/G: 1.1
[1]; 15 mg/kg, […], tissue Plasma, dose level High, time 7 day
  A/G: 1.1
[1]; 15 mg/kg, […], tissue Plasma, dose level High, time 14 day
  A/G: 1.1
[1]; 15 mg/kg, […], tissue Plasma, dose level High, time 28 day
  A/G: 1.1
[2]; [7]
  A/G: 1.1 and 0.9
[2]; [8]
  A/G: 1.1 and 0.9
[2]; [9]
  A/G: 1.2 and 0.9
[2]; [10]
  A/G: 1.1 and 0.9
[2]; 2 mg/kg, 3 h, tissue Plasma, dose level Low
  A/G: 1.2
[2]; 2 mg/kg, 6 h, tissue Plasma, dose level Low
  A/G: 1.2
[2]; 2 mg/kg, 9 h, tissue Plasma, dose level Low
  A/G: 1.3
[2]; 2 mg/kg, 24 h, tissue Plasma, dose level Low
  A/G: 1.2
[2]; 5 mg/kg, 3 h, tissue Plasma, dose level Middle
  A/G: 1.2
[2]; 5 mg/kg, 6 h, tissue Plasma, dose level Middle
  A/G: 1.2
[2]; [11]
  A/G: 1.2
  TG: 44.2 mg/dL
[2]; 5 mg/kg, 24 h, tissue Plasma, dose level Middle
  A/G: 1.2
[2]; 15 mg/kg, 3 h, tissue Plasma, dose level High
  A/G: 1.2
[2]; 15 mg/kg, 3 h, tissue Plasma, dose level Low
  A/G: 0.9
[2]; 15 mg/kg, 6 h, tissue Plasma, dose level High
  A/G: 1.2
[2]; 15 mg/kg, 6 h, tissue Plasma, dose level Low
  A/G: 0.9
[2]; 15 mg/kg, 9 h, tissue Plasma, dose level High
  A/G: 1.2
[2]; 15 mg/kg, 9 h, tissue Plasma, dose level Low
  A/G: 0.9
[2]; 15 mg/kg, 24 h, tissue Plasma, dose level High
  A/G: 1.3
[2]; 15 mg/kg, 24 h, tissue Plasma, dose level Low
  A/G: 0.9
[2]; 50 mg/kg, 3 h, tissue Plasma, dose level Middle
  A/G: 0.9
[2]; 50 mg/kg, 6 h, tissue Plasma, dose level Middle
  A/G: 0.9
[2]; 50 mg/kg, 9 h, tissue Plasma, dose level Middle
  A/G: 0.9
[2]; 50 mg/kg, 24 h, tissue Plasma, dose level Middle
  A/G: 0.9
[2]; 150 mg/kg, 3 h, tissue Plasma, dose level High
  A/G: 0.9
[2]; 150 mg/kg, 6 h, tissue Plasma, dose level High
  A/G: 0.9
[2]; 150 mg/kg, 9 h, tissue Plasma, dose level High
  A/G: 0.9
[2]; 150 mg/kg, 24 h, tissue Plasma, dose level High
  A/G: 0.9

## CN(C)CCC=C1c2ccccc2COc2ccccc21 [DOXEPIN]
[1]; [3]
  A/G: 0.9
[1]; [4]
  A/G: 0.9
  Cl: 105 meq/L
[1]; [5]
  A/G: 0.8
[1]; [6]
  A/G: 0.8
[1]; 10 mg/kg, 72 h, tissue Liver, dose level Low, time 3 day
  LIVER: 10.5 g
[1]; 10 mg/kg, 72 h, tissue Plasma, dose level Low, time 3 day
  A/G: 0.9
[1]; 10 mg/kg, […], tissue Plasma, dose level Low, time 7 day
  A/G: 0.8
[1]; 10 mg/kg, […], tissue Plasma, dose level Low, time 14 day
  A/G: 0.8
[1]; [12]
  A/G: 0.8
  Ca: 10.5 mg/dL
[1]; 30 mg/kg, 72 h, tissue Plasma, dose level Middle, time 3 day
  A/G: 0.9
[1]; 30 mg/kg, […], tissue Plasma, dose level Middle, time 7 day
  A/G: 0.9
[1]; 30 mg/kg, […], tissue Plasma, dose level Middle, time 14 day
  A/G: 0.8
[1]; 30 mg/kg, […], tissue Plasma, dose level Middle, time 28 day
  A/G: 0.8
[1]; 100 mg/kg, 72 h, tissue Plasma, dose level High, time 3 day
  A/G: 0.9
[1]; 100 mg/kg, […], tissue Plasma, dose level High, time 7 day
  A/G: 0.8
[1]; 100 mg/kg, […], tissue Plasma, dose level High, time 14 day
  A/G: 0.8
[1]; [13]
  A/G: 0.9
  Ca: 10.5 mg/dL
[2]; [7]
  A/G: 0.9
[2]; [8]
  A/G: 0.9
[2]; [9]
  A/G: 0.9
[2]; [10]
  A/G: 0.8
  Cl: 105 meq/L
[2]; 100 mg/kg, 3 h, tissue Plasma, dose level Low
  A/G: 0.8
[2]; 100 mg/kg, 6 h, tissue Plasma, dose level Low
  A/G: 0.9
[2]; 100 mg/kg, 9 h, tissue Plasma, dose level Low
  A/G: 0.9
[2]; 100 mg/kg, 24 h, tissue Plasma, dose level Low
  A/G: 0.9
[2]; 300 mg/kg, 3 h, tissue Plasma, dose level Middle
  A/G: 0.9
[2]; [14]
  A/G: 0.9
  Ca: 10.5 mg/dL
[2]; 300 mg/kg, 9 h, tissue Plasma, dose level Middle
  A/G: 0.9
[2]; 300 mg/kg, 24 h, tissue Blood, dose level Middle
  PT: 13.8 s
[2]; [15]
  A/G: 0.9
  BUN: 13.8 mg/dL
  Ca: 10.5 mg/dL
